As usually defined, the IC50 is the concentration needed to halve the response being measured.

Amino acid sequences for entries named in this document (tags omitted). Residues count along the entry.
UniProt P25774, 115-331: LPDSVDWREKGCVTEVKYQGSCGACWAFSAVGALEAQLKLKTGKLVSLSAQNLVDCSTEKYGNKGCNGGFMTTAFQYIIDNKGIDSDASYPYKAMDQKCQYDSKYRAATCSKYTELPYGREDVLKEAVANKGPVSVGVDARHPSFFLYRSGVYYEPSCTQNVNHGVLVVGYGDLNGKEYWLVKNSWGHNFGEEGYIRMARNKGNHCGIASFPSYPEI

The assay addresses Recombinant human cathepsin S (CatS) (Homo sapiens, UniProt P25774). Put plainly: biochemical.

With `CS(=O)(=O)N1CCc2c(c(-c3ccc(C(F)(F)F)c(SCCN4CCOCC4)c3)nn2CC(O)CN2CCC(N3CCOCC3)CC2)C1` (stereo not drawn) [Example 691, 1-[5-(Methylsulfonyl)-3-{3-[(2-morpholin-4-ylethyl)sulfanyl]-4-(trifluoromethyl)phenyl}-4,5,6,7-tetrahydro-1H-pyrazolo[4,3-c]pyridin-1-yl]-3-(4-morpholin-4-ylpiperidin-1-yl)propan-2-ol], the IC50 turned out to be 270 nM.

Take `CC(C)NCCSc1cc(-c2nn(CCCN3CCC(N4CCCC4=O)CC3)c3c2CN(S(C)(=O)=O)CC3)ccc1C(F)(F)F` [Example 530, 1-[1-(3-{3-[3-({2-[(1-Methylethyl)amino]ethyl}sulfanyl)-4-(trifluoromethyl)phenyl]-5-(methylsulfonyl)-4,5,6,7-tetrahydro-1H-pyrazolo[4,3-c]pyridin-1-yl}propyl)piperidin-4-yl]pyrrolidin-2-one]: the IC50 came to 1200 nM.

As to `CS(=O)(=O)NC1CCN(CC(O)Cn2nc(-c3ccc(C(F)(F)F)c(SCCN4CCC(F)(F)C4)c3)c3c2CCN(C(=O)CO)C3)CC1` (stereo not drawn) [Example 727, N-[1-(3-{3-[3-{[2-(3,3-Difluoropyrrolidin-1-yl)ethyl]sulfanyl}-4-(trifluoromethyl)phenyl]-5-(hydroxyacetyl)-4,5,6,7-tetrahydro-1H-pyrazolo[4,3-c]pyridin-1-yl}-2-hydroxypropyl)piperidin-4-yl]methanesulfonamide], the IC50 stood at 50 nM.

`CS(=O)(=O)N1CCc2c(c(-c3ccc(C(F)(F)F)c(SCCN4CCC(F)(F)C4)c3)nn2CC(O)CN2CCN(c3cnccn3)CC2)C1` (stereo not drawn) [Example 759, 1-{3-[3-{[2-(3,3-Difluoropyrrolidin-1-yl)ethyl]sulfanyl}-4-(trifluoromethyl)phenyl]-5-(methylsulfonyl)-4,5,6,7-tetrahydro-1H-pyrazolo[4,3-c]pyridin-1-yl}-3-(4-pyrazin-2-ylpiperazin-1-yl)propan-2-ol]: the IC50 stood at 70 nM.

For the molecule `CS(=O)(=O)N1CCc2c(c(-c3ccc(C(F)(F)F)c(SCCNC(=O)c4ccc(F)cc4)c3)nn2CC(O)CN2CCC(N3CCCC3=O)CC2)C1` (stereo not drawn) [Example 118, 4-Fluoro-N-{2-[5-(1-{2-hydroxy-3-[4-(2-oxo-pyrrolidin-1-yl)-piperidin-1-yl]-propyl}-5-methanesulfonyl-4,5,6,7-tetrahydro-1H-pyrazolo[4,3-c]pyridin-3-yl)-2-trifluoromethyl-phenylsulfanyl]-ethyl}-benzamide], the IC50 was 360 nM.

`CS(=O)(=O)N1CCc2c(c(-c3ccc(C(F)(F)F)c(SCCN4CCC(F)CC4)c3)nn2CC(O)CN2CC[C@H](O)C2)C1` (stereo partly drawn) [Example 413, (3S)-1-(3-{3-[3-{[2-(4-Fluoropiperidin-1-yl)ethyl]sulfanyl}-4-(trifluoromethyl)phenyl]-5-(methylsulfonyl)-4,5,6,7-tetrahydro-1H-pyrazolo[4,3-c]pyridin-1-yl}-2-hydroxypropyl)pyrrolidin-3-ol]: the IC50 worked out at 390 nM.

For the molecule `CS(=O)(=O)N1CCc2c(c(-c3ccc(C(F)(F)F)c(SCCN4CCOCC4)c3)nn2CC(O)CN2CCN(c3ccccc3F)CC2)C1` (stereo not drawn) [Example 742, 1-[4-(2-Fluorophenyl)piperazin-1-yl]-3-[5-(methylsulfonyl)-3-{3-[(2-morpholin-4-ylethyl)sulfanyl]-4-(trifluoromethyl)phenyl}-4,5,6,7-tetrahydro-1H-pyrazolo[4,3-c]pyridin-1-yl]propan-2-ol], the IC50 was found to be 30 nM.

For `CC(C)(C)OC(=O)N1CCC(CC(=O)N2CCc3c(c(-c4ccc(C(F)(F)F)c(SCCN5CCCC5)c4)nn3CC(O)CN3CCC(NC(=O)CO)CC3)C2)CC1` (stereo not drawn) [Example 895, 1,1-Dimethylethyl 4-{2-[1-(2-hydroxy-3-{4-[(hydroxyacetyl)amino]piperidin-1-yl}propyl)-3-{3-[(2-pyrrolidin-1-ylethyl)sulfanyl]-4-(trifluoromethyl)phenyl}-1,4,6,7-tetrahydro-5H-pyrazolo[4,3-c]pyridin-5-yl]-2-oxoethyl}piperidine-1-carboxylate], the IC50 was 540 nM.

For the molecule `CC(CCc1ccccc1)NCCSc1cc(-c2nn(CCCN3CCC(N4CCCC4=O)CC3)c3c2CN(S(C)(=O)=O)CC3)ccc1C(F)(F)F` (stereo not drawn) [Example 853, 1-[1-(3-{3-[3-({2-[(1-Methyl-3-phenylpropyl)amino]ethyl}sulfanyl)-4-(trifluoromethyl)phenyl]-5-(methylsulfonyl)-4,5,6,7-tetrahydro-1H-pyrazolo[4,3-c]pyridin-1-yl}propyl)piperidin-4-yl]pyrrolidin-2-one], the IC50 was 1430 nM.

Consider `CSCC(=O)N1CCc2c(c(-c3ccc(C(F)(F)F)c(SCCN4CCCC4)c3)nn2CC(O)CN2CCC(NC(=O)CO)CC2)C1` (stereo not drawn) [Example 638, 2-Hydroxy-N-{1-[2-hydroxy-3-(5-[(methylsulfanyl)acetyl]-3-{3-[(2-pyrrolidin-1-ylethyl)sulfanyl]-4-(trifluoromethyl)phenyl}-4,5,6,7-tetrahydro-1H-pyrazolo[4,3-c]pyridin-1-yl)propyl]piperidin-4-yl}acetamide], for which the IC50 turned out to be 320 nM.

Consider `CC1(C)CCN(CC(O)Cn2nc(-c3ccc(C(F)(F)F)c(SCCN4CCCC4)c3)c3c2CCN(S(C)(=O)=O)C3)CC1` (stereo not drawn) [Example 378, 1-(4,4-Dimethylpiperidin-1-yl)-3-[5-(methylsulfonyl)-3-{3-[(2-pyrrolidin-1-ylethyl)sulfanyl]-4-(trifluoromethyl)phenyl}-4,5,6,7-tetrahydro-1H-pyrazolo[4,3-c]pyridin-1-yl]propan-2-ol], for which the IC50 worked out at 560 nM.

`CS(=O)(=O)NC1CCN(CC(O)Cn2nc(-c3ccc(C(F)(F)F)c(SCCN4CCOC(CO)C4)c3)c3c2CCN(S(C)(=O)=O)C3)CC1` (stereo not drawn) [Example 843, N-[1-(2-Hydroxy-3-{3-[3-({2-[2-(hydroxymethyl)morpholin-4-yl]ethyl}sulfanyl)-4-(trifluoromethyl)phenyl]-5-(methylsulfonyl)-4,5,6,7-tetrahydro-1H-pyrazolo[4,3-c]pyridin-1-yl}propyl)piperidin-4-yl]methanesulfonamide]: the IC50 came out at 190 nM.

In the case of `CN1CCCN(CC(O)Cn2nc(-c3ccc(C(F)(F)F)c(SCCN4CCCC4)c3)c3c2CCN(S(C)(=O)=O)C3)CC1` (stereo not drawn) [Example 382, 1-(4-Methyl-1,4-diazepan-1-yl)-3-[5-(methylsulfonyl)-3-{3-[(2-pyrrolidin-1-ylethyl)sulfanyl]-4-(trifluoromethyl)phenyl}-4,5,6,7-tetrahydro-1H-pyrazolo[4,3-c]pyridin-1-yl]propan-2-ol], the IC50 was 4760 nM.

`CCN(CC)C(=O)C1CCCN(CCSc2cc(-c3nn(CCCN4CCC(N5CCCC5=O)CC4)c4c3CN(S(C)(=O)=O)CC4)ccc2C(F)(F)F)C1` (stereo not drawn) [Example 52, 1-{2-[5-(5-Methanesulfonyl-1-{3-[4-(2-oxo-pyrrolidin-1-yl)-piperidin-1-yl]-propyl}-4,5,6,7-tetrahydro-1H-pyrazolo[4,3-c]pyridin-3-yl)-2-trifluoromethyl-phenylsulfanyl]-ethyl}-piperidine-3-carboxylic acid diethylamide]: the IC50 was 2120 nM.

Consider `CC(=O)N1CCc2c(c(-c3ccc(C(F)(F)F)c(SCC(=O)N4CCCC4)c3)nn2CC(O)CN2CCCCC2)C1` (stereo not drawn) [Example 279, 1-(5-Acetyl-3-{3-[(2-oxo-2-pyrrolidin-1-ylethyl)sulfanyl]-4-(trifluoromethyl)phenyl}-4,5,6,7-tetrahydro-1H-pyrazolo[4,3-c]pyridin-1-yl)-3-piperidin-1-ylpropan-2-ol], for which the IC50 amounted to 390 nM.

With `CN1CCN(CCSc2cc(-c3nn(CCCN4CCC(N5CCCC5=O)CC4)c4c3CN(S(C)(=O)=O)CC4)ccc2C(F)(F)F)CC1` [Example 32, 1-{1-[3-(5-Methanesulfonyl-3-{3-[2-(4-methyl-piperazin-1-yl)-ethylsulfanyl]-4-trifluoromethyl-phenyl}-4,5,6,7-tetrahydro-pyrazolo[4,3-c]pyridin-1-yl)-propyl]-piperidin-4-yl}-pyrrolidin-2-one], the IC50 came to 1060 nM.

On to `Cn1c(=O)n(C2CCN(CC(O)Cn3nc(-c4ccc(C(F)(F)F)c(SCCN5CCCCC5)c4)c4c3CCNC4)CC2)c2cc(Cl)ccc21` (stereo not drawn) [Example 762, 5-Chloro-3-{1-[2-hydroxy-3-(3-{3-[(2-piperidin-1-ylethyl)sulfanyl]-4-(trifluoromethyl)phenyl}-4,5,6,7-tetrahydro-1H-pyrazolo[4,3-c]pyridin-1-yl)propyl]piperidin-4-yl}-1-methyl-1,3-dihydro-2H-benzimidazol-2-one], for which the IC50 was 140 nM.

Consider `CS(=O)(=O)N1CCc2c(c(-c3ccc(C(F)(F)F)c(SCCN4CCCC(CO)C4)c3)nn2CC(O)CN2CCC(c3ccccn3)CC2)C1` (stereo not drawn) [Example 777, 1-{3-[3-({2-[3-(Hydroxymethyl)piperidin-1-yl]ethyl}sulfanyl)-4-(trifluoromethyl)phenyl]-5-(methylsulfonyl)-4,5,6,7-tetrahydro-1H-pyrazolo[4,3-c]pyridin-1-yl}-3-(4-pyridin-2-ylpiperidin-1-yl)propan-2-ol], for which the IC50 worked out at 15 nM.

As for `CC1CCN(CCSc2cc(-c3nn(C[C@@H](O)CN4CCC(NC(=O)[C@H](C)O)CC4)c4c3CN(S(C)(=O)=O)CC4)ccc2C(F)(F)F)CC1` [Example 761, (2S)-2-Hydroxy-N-{1-[(2S)-2-hydroxy-3-{3-[3-{[2-(4-methylpiperidin-1-yl)ethyl]sulfanyl}-4-(trifluoromethyl)phenyl]-5-(methylsulfonyl)-4,5,6,7-tetrahydro-1H-pyrazolo[4,3-c]pyridin-1-yl}propyl]piperidin-4-yl}propanamide], the IC50 amounted to 65 nM.

Take `OC(CN1CCC(c2cccc(Cl)c2)CC1)Cn1nc(-c2ccc(C(F)(F)F)c(SCCN3CCCCC3)c2)c2c1CCNC2` (stereo not drawn) [Example 468, 1-[4-(3-Chlorophenyl)piperidin-1-yl]-3-(3-{3-[(2-piperidin-1-ylethyl)sulfanyl]-4-(trifluoromethyl)phenyl}-4,5,6,7-tetrahydro-1H-pyrazolo[4,3-c]pyridin-1-yl)propan-2-ol]: the IC50 amounted to 130 nM.

For `CS(=O)(=O)N1CCc2c(c(-c3ccc(C(F)(F)F)c(SCCNCCOc4ccccc4)c3)nn2CCCN2CCC(N3CCCC3=O)CC2)C1` [Example 47, 1-{1-[3-(5-Methanesulfonyl-3-{3-[2-(2-phenoxy-ethylamino)-ethylsulfanyl]-4-trifluoromethyl-phenyl}-4,5,6,7-tetrahydro-pyrazolo[4,3-c]pyridin-1-yl)-propyl]-piperidin-4-yl}-pyrrolidin-2-one], the IC50 is 660 nM.
